Results taken from the supplement of paper PMC12669032.
This list holds what a sample rich in hits left over.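 How the source made its calls: active = AUC reduced over 20% with Padj below 0.05 in at least 2 of 3 replicates; inactive = otherwise.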

Test system: Coprococcus comes
Assay: growth AUC relative to DMSO control (median of replicates) (fraction); higher = more growth (less inhibition), active = hit call of the paper
Details: 20 µM; 24 h
Description: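 Anaerobic monocultures of 22 human gut bacterial strains grown at 37 °C in mGAM with 20 µM compound (1% DMSO), starting OD600 0.05. OD600 read hourly for 24 h. Value is the median of 3 biological replicates. Hit: >20% AUC reduction and Padj<0.05 in at least 2 of 3 replicates.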

Row | SMILES | growth AUC
1 | CCOc1nc(C(Cl)(Cl)Cl)ns1 | inactive: 1.02
2 | CCOP(=S)(OCC)Oc1ncn(-c2ccccc2)n1 | inactive: 1
